The entries are a selection whose mix differs from that of the whole data set. Calls of active or inactive are those of the source.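 How the source made its calls: active means inhibition above the mean inhibition of all tested compounds plus 3 SD (cut at about 28% in these data); inactive means the rest.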
Assay: Jurkat cell viability reduction – Jurkat E6.1, 60K MLSMR library, cytotoxicity control, primary screen (AID 463)
Conditions: Jurkat E6.1 viability, ATP luminescence, 48 h; at 4 µM; hits give high values
In the case of `CCOc1ncccc1C(=O)NCC1(N2CCOCC2)CCCCC1`, the inhibition is reported as inactive: -3%.
With `CCC(CO)(C(=O)OC1CN2CCC1CC2)c1ccccc1` (configuration not stated) the inhibition was inactive: -3.4%.
For `Fc1ccccc1NC1CCN(Cc2ccccc2)CC1`, the inhibition was inactive: 6.9%.
For `N/C(=N\O)c1c(N)no[n+]1[O-]`, the inhibition was inactive: -1.3%.
In the case of `N#CC1(Nc2ccccc2)CCN(CCc2ccccc2)CC1`, the inhibition is reported as inactive: -2%.
In the case of `COc1ccc(NC2CCN(CCc3ccccc3)CC2)c(OC)c1`, the inhibition is reported as inactive: 5.2%.
For `O=C(OC1CN2CCC1CC2)C1c2ccccc2Oc2ccccc21` (configuration not stated), the inhibition was inactive: -6.8%.
